What is called EC50 is the concentration giving half of the maximal effect. One may read the IC50 as the midpoint of a concentration-inhibition curve.

Consider one compound from ChEMBL document CHEMBL4842340, “Development of Cagrilintide, a Long-Acting Amylin Analogue” (J Med Chem, 2021).

Assay type in all cases: cell-based
Experiment [1] is described as follows: Agonist activity at rat AMY3R (CT+RAMP3) expressed in tk-ts13 cells assessed as increase in intracellular cAMP level incuabted for 25 mins by CRE luciferase reporter gene assay. Particulars: tk-ts13, 25 min. (In general: Changes in cAMP serve as a functional read-out for many G protein-coupled receptors.)
The species named for experiment [2] is Homo sapiens. The experiment can be described thus: Ratio of EC50 for human calcitonin receptor expressed in BHK570 cells to EC50 for human AMY3R (CT+RAMP3) expressed in Hollex1 cells.
The nature of experiment [3]: Displacement of [125I]-calcitonin from human calcitonin receptor expressed in tk-ts 13 cells measured after 120 mins by scintillation proximity assay. Conditions: tk-ts13. On the technique in general: In a radioligand displacement assay an active substance lowers the binding of a labelled ligand.
Experiment [4] in a line: Displacement of [125I]-amylin from human AMY3R (CTR+RAMP3) expressed in BHK-13 cells measured after 120 mins by scintillation proximity assay.
The species named for experiment [5] is Rattus norvegicus. The experiment can be described thus: Ratio of EC50 for rat calcitonin receptor expressed in BHK-13 cells to EC50 for rat AMY3R (CT+RAMP3) expressed in tk-ts13 cells.
Experiment [6] in a line: Displacement of [125I]-amylin from rat AMY3R (CTR+RAMP3) expressed in BHK-13 cells measured after 120 mins by scintillation proximity assay.
A short description of experiment [7]: Agonist activity at rat calcitonin receptor expressed in BHK-13 cells assessed as increase in intracellular cAMP concentration incubated for 25 mins by CRE luciferase reporter gene assay. Particulars: BHK-13, 25 min.
The species entered for experiment [8] is Rattus norvegicus. Description: Ratio of IC50 for displacement of [125I]-calcitonin from rat calcitonin receptor expressed in tk-ts 13 cells to IC50 for displacement of [125I]-amylin from rat AMY3R (CTR+RAMP3) expressed in BHK-13 cells.
Experiment [9] can be described thus: Agonist activity at human AMY3R (CT+RAMP3) expressed in Hollex1 cells incubated for 3 hrs by luminescence assay. Particulars: Hollex1, 3 h.
The nature of experiment [10]: Displacement of [125I]-calcitonin from rat calcitonin receptor expressed in tk-ts 13 cells measured after 120 mins by scintillation proximity assay. Conditions: tk-ts13.
The species entered for experiment [11] is Homo sapiens. The experiment can be described thus: Ratio of IC50 for displacement of [125I]-calcitonin from human calcitonin receptor expressed in tk-ts 13 cells to IC50 for displacement of [125I]-amylin from human AMY3R (CTR+RAMP3) expressed in BHK-13 cells.
Experiment [12] can be described thus: Agonist activity at human calcitonin receptor expressed in BHK570 cells assessed as increase in intracellular cAMP concentration incubated for 3 hrs in absence of albumin by CRE luciferase reporter gene assay. Conditions: BHK570, 3 h. For orientation: In a reporter assay the amount or activity of a reporter protein is the signal.

As for `CC[C@H](C)[C@H](NC(=O)[C@@H]1CCCN1C(=O)CNC(=O)[C@H](Cc1ccccc1)NC(=O)[C@H](CC(N)=O)NC(=O)[C@H](CC(N)=O)NC(=O)[C@H](CO)NC(=O)[C@H](CO)NC(=O)[C@H](Cc1c[nH]cn1)NC(=O)[C@@H](NC(=O)[C@H](CC(C)C)NC(=O)[C@H](Cc1ccccc1)NC(=O)[C@H](CC(N)=O)NC(=O)[C@H](C)NC(=O)[C@H](CC(C)C)NC(=O)[C@H](CCCNC(=N)N)NC(=O)[C@H](CCC(N)=O)NC(=O)[C@@H](NC(=O)[C@H](C)NC(=O)[C@@H]1CSSC[C@H](NC(=O)[C@@H](N)CCCCN)C(=O)N[C@@H](CC(N)=O)C(=O)N[C@@H]([C@@H](C)O)C(=O)N[C@@H](C)C(=O)N[C@@H]([C@@H](C)O)C(=O)N1)[C@@H](C)O)C(C)C)C(=O)N[C@@H](CC(C)C)C(=O)N1CCC[C@H]1C(=O)N1CCC[C@H]1C(=O)N[C@H](C(=O)N[C@@H](CC(N)=O)C(=O)N[C@H](C(=O)NCC(=O)N[C@@H](CO)C(=O)N[C@@H](CC(N)=O)C(=O)N[C@H](C(=O)N[C@@H](Cc1ccc(O)cc1)C(N)=O)[C@@H](C)O)C(C)C)[C@@H](C)O` [PRAMLINTIDE], the half-maximal effective concentration (EC50) in [1] turned out to be 0.004 nM; in experiment [7], 1.82 nM; in [9], 0.005 nM; in [12], 0.07 nM. Further, the Ratio EC50 stood at 14 in [2] and 463 in [5]. Further, the IC50 in [3] was 1.49 nM; in experiment [4], 0.114 nM; in experiment [6], 0.122 nM; in experiment [10], 5.83 nM. The Ratio IC50 in experiment [8] was 48; in [11] it was 13.
